This note sets out measurements from patent US11202854B2, “Disintegrin variants and uses thereof” (National Taiwan University, priority 2017, dated 2021).

Chains of the proteins cited; added tags and fusions are not shown. Residues count along the entry.
UniProt P05106, 27-788: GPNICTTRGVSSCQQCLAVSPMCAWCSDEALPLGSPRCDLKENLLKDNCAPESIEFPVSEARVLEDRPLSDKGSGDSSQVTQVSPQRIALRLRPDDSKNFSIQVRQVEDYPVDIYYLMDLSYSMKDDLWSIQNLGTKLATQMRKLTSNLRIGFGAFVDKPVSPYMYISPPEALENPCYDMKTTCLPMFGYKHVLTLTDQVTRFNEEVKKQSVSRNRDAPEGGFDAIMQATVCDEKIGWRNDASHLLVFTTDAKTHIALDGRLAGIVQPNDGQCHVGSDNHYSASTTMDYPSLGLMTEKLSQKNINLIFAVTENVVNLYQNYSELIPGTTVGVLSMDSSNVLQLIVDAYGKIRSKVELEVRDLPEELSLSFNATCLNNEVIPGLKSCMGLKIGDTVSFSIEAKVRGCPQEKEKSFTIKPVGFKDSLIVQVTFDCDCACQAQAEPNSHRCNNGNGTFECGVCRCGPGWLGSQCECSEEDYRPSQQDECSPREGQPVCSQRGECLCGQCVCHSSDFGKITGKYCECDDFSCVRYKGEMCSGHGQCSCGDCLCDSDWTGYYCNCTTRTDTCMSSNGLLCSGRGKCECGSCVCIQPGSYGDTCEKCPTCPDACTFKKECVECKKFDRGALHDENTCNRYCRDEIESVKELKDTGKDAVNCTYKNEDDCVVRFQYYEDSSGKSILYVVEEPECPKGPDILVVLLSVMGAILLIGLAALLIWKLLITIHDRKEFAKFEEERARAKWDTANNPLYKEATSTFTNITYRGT
UniProt P08514, 32-887 limits assumed: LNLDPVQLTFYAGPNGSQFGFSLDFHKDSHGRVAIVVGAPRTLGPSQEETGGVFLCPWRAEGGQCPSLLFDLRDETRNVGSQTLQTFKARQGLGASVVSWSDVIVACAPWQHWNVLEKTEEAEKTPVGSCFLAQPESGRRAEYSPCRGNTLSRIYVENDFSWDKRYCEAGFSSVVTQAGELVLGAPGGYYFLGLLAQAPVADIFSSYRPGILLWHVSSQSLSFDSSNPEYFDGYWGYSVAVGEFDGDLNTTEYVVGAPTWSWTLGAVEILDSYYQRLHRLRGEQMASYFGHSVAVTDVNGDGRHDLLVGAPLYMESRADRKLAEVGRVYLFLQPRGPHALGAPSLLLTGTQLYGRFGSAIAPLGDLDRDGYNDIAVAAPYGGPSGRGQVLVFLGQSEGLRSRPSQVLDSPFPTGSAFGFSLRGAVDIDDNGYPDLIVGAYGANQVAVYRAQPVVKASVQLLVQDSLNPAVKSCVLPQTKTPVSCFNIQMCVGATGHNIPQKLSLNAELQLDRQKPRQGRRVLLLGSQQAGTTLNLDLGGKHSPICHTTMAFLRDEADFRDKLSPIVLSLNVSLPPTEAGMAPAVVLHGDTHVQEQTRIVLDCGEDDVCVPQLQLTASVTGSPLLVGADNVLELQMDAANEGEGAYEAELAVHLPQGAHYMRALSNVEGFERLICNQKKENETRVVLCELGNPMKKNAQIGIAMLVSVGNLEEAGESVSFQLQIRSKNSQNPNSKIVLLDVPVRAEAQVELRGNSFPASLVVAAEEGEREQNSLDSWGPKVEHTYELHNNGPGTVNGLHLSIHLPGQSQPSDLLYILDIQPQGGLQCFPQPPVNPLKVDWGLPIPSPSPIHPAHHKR
UniProt P08514, 891-1039 partner limits assumed: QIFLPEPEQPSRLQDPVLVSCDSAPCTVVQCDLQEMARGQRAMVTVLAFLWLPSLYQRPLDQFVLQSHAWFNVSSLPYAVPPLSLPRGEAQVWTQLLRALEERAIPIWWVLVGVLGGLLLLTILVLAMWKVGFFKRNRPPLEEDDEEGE

This test addresses T1, integrin αIIbβ3 (Homo sapiens, UniProt P05106+P08514).
T1 construct: host or cells: CHO (Chinese hamster ovary) cells
As to the kind of experiment: Cell adhesion assay: CHO-αIIbβ3 cells to fibrinogen. The test is classed as cell-based. The note with it: Table 4; CHO-αIIbβ3 cells to immobilized fibrinogen. As to the method:
A cell adhesion assay was used to determine the inhibitory activity of Rho, TMV, and their variants and was conducted according to previously described protocols. 96-well microtiter plates (Costar; Corning) were coated with 100 μL PBS buffer containing 200 μg/mL fibrinogen or 50 μg/mL fibronectin, and incubated overnight at 4° C. Non-specific protein binding sites were blocked by incubating each well with 200 μL of heat-denatured 1% bovine serum albumin (BSA) (Calbiochem) at room temperature for 1.5 h. The heat-denatured BSA was discarded and each well was washed twice with 200 μL PBS.
Chinese hamster ovary (CHO) cells that expressed integrins αvβ3 (CHO-αvβ3) and αIIbβ3 (CHO-αIIbβ3) were kindly provided by Dr. Y. Takada (Scripps Research Institute) and maintained in Dulbecco's modified Eagle's medium (18, 27). Human erythroleukemia K562 cell was purchased from ATCC and cultured in Roswell Park Memorial Institute (RPMI)—1640 medium containing 10% fetal bovine serum (FBS). Harvested K562 cells were resuspended in RPMI-1640 medium containing 5% FBS. […]
The adhesions of CHO-αIIbβ3 cells to fibrinogen, CHO-αvβ3 cells to fibrinogen, and K562 cells to fibronectin were used to determine the inhibitory activities of tested protein to integrins αIIbβ3, αvβ3, and α5β1. […] The resulting absorbance was read at 600 nm and the readings were correlated with the number of adhering cells. […]

For Rhodostomin, the midpoint of inhibition, the IC50, lay at 52.2 ± 8.2 nM.

As usually defined, the IC50 is the concentration that inhibits the measured activity by half. Read a high IC50 as lower potency.
